According to patent EP0525063B1, “Use of specific fatty acids in the manufacture of a medicament for their Iontophoresis delivery” (priority 1990, dated 1991):

Tests used:
[1] = Iontophoretic drug delivery through skin in vertical flow-through diffusion cell, skin type not specified for these values; conditions: delivery of HM-HCl 0.1M, enhancer 100 mg/ml (10.0%)
[2] = Iontophoretic drug delivery through skin in vertical flow-through diffusion cell, HPLC of receptor solution (pig skin)

## CCCCCCCCCC(=O)O [Capric acid, decanoic acid]
[1]; E/W 60/40, current 1 mA
  Steady State Delivery Rate ± sd: 4674 ± 679 µg/h

## CCCCCCCC(=O)O [Caprylic acid, octanoic acid]
[1]; E/W 48/52, current 1 mA
  Steady State Delivery Rate ± sd: 4289 ± 597 µg/h

## CCCCCCCC/C=C\CCCCCCCC(=O)O [Oleic acid, cis-9-octadecenoic acid]
[2]; delivery of oxymorphone, oleic acid 2 mg/ml (0.2%) in 56/44 (E/W), current 0 mA
  Steady State Delivery Rate ± sd: 1280 ± 221 µg/h
[2]; delivery of oxymorphone, oleic acid 2 mg/ml (0.2%) in 56/44 (E/W), current 0.25 mA
  Steady State Delivery Rate ± sd: 2204 ± 140 µg/h
[2]; delivery of oxymorphone, oleic acid 2 mg/ml (0.2%) in 56/44 (E/W), current 0.50 mA
  Steady State Delivery Rate ± sd: 2597 ± 338 µg/h
[2]; delivery of oxymorphone, oleic acid 2 mg/ml (0.2%) in 56/44 (E/W), current 0.75 mA
  Steady State Delivery Rate ± sd: 3476 ± 465 µg/h
[2]; delivery of oxymorphone, oleic acid 2 mg/ml (0.2%) in 56/44 (E/W), current 1.0 mA
  Steady State Delivery Rate ± sd: 3806 ± 512 µg/h
[2]; delivery of oxymorphone, oleic acid 5 mg/ml (0.5%) in 62/38 (E/W), current 0 mA
  Steady State Delivery Rate ± sd: 1734 ± 102 µg/h
[2]; delivery of oxymorphone, oleic acid 5 mg/ml (0.5%) in 62/38 (E/W), current 0.25 mA
  Steady State Delivery Rate ± sd: 2832 ± 91 µg/h
[2]; delivery of oxymorphone, oleic acid 5 mg/ml (0.5%) in 62/38 (E/W), current 0.50 mA
  Steady State Delivery Rate ± sd: 3699 ± 222 µg/h
[2]; delivery of oxymorphone, oleic acid 5 mg/ml (0.5%) in 62/38 (E/W), current 0.75 mA
  Steady State Delivery Rate ± sd: 4583 ± 304 µg/h
[2]; delivery of oxymorphone, oleic acid 5 mg/ml (0.5%) in 62/38 (E/W), current 1.0 mA
  Steady State Delivery Rate ± sd: 5597 ± 433 µg/h
[2]; delivery of oxymorphone-HCl, oleic acid 0.25 mg/ml (0.025%), E/W 48/52, 1 mA
  Steady State Delivery Rate ± sd: 916 ± 38 »g/hr
[2]; delivery of oxymorphone-HCl, oleic acid 0.50 mg/ml (0.050%), E/W 48/52, 1 mA
  Steady State Delivery Rate ± sd: 1583 ± 613 »g/hr
[2]; delivery of oxymorphone-HCl, oleic acid 1.0 mg/ml (0.10%), E/W 52/48, 1 mA
  Steady State Delivery Rate ± sd: 2230 ± 877 »g/hr
[2]; delivery of oxymorphone-HCl, oleic acid 2.0 mg/ml (0.20%), E/W 56/44, 1 mA
  Steady State Delivery Rate ± sd: 3806 ± 512 »g/hr
[2]; delivery of oxymorphone-HCl, oleic acid 2.5 mg/ml (0.25%), E/W 56/44, 1 mA, two identical tests on different days
  Steady State Delivery Rate ± sd: 5020 ± 748 »g/hr
[2]; delivery of oxymorphone-HCl, oleic acid 5.0 mg/ml (0.50%), E/W 67/33, 1 mA
  Steady State Delivery Rate ± sd: 5597 ± 433 »g/hr
